Test results reported in patent US20140363818A1, “EGFR and PAR2 Regulation of Intestinal Permeability” (UNIVERSITY OF MARYLAND, BALTIMORE, priority 2009, published 2014).

Target: T1, EGFR (Homo sapiens, UniProt P00533)
T1 construct: serum-starved, high EGFR-expressing Caco-2 cells; endogenous in cells; host or cells: Caco-2
Test: EGFR phosphorylation in serum-starved Caco-2 cells (immunoprecipitation / Western blot)
Type: cell-based
Details: AG1478 5 μM, 2 h pre-incubation, Y1068, FIG. 5B
Protocol: PAR2 expression in Caco-2 cells was silenced using 2 different PAR2 siRNAs [HSS103471 and HSS103473 (50 nM each); Invitrogen].
The effect of zonulin on ex vivo and in vivo intestinal permeability was performed as described (8, 14) and reported above. To determine whether zonulin can activate EGFR, increasing concentrations of either zonulin or two-chain mature HP2 were added for increasing exposure times to serum-starved, high EGFR-expressing Caco-2 cells. The cells were lysed and processed for WB with anti-phospho EGFR (Y1068) Ab (Cell Signaling Technol. Inc.) as reported (40).
To determine whether zonulin can activate EGFR, increasing concentrations of baculovirus-derived, recombinant zonulin were added to Caco-2 intestinal epithelial cells. The cells were lysed, immunoprecipitated with anti-EGFR Ab, and processed for phosphotyrosine immunoblotting (PY-Plus).

Question: COc1cc2ncnc(Nc3cccc(Cl)c3)c2cc1OC [AG1478, reference compound] was tested. Which “effect on zonulin-induced EGFR phosphorylation” value did it give?
Answer: prevented; also recorded: completely abolished

Entries after “also recorded” stand apart in the source; their conditions may differ.
